Values quoted from earlier work as cited in patent US20100320428A1, “GASEOUS DIELECTRICS WITH LOW GLOBAL WARMING POTENTIALS” (priority 2006, published 2010).

Settings: boiling point; Table 2, preferred dielectric compounds; cited from earlier work

| Compound | MY BP |
| --- | --- |
| FP(F)(F)(F)F | −84.5 °C |
| O=S(=O)(F)C(F)(F)F | −21.7 °C |
| Fluorine nitrate | −46.2 °C |
| Phosphorus trifluoride | −101.5 °C |
| FP(F)C(F)(F)F | −43.0 °C |
| O=C(N(F)F)N(F)F | −20.0 °C |
| Difluoramine | −23.2 °C |
